Tests used:
[1] = molecular target: biotinylated human TGF-β3 bearing an N-terminal Avitag (Avi-hTGF-β3) (human); experiment: SPR; BIAcore 3000; biotinylated Avi-hTGF-β3 or Hp-TGM captured on streptavidin-coated CM5 chips (400-500 RU); two-fold dilutions of analyte (hTβRII from 13 µM downwards, r-betaglycan) in HBS-EP, 100 µL/min, room temperature; global fit, simple 1:1 model
[2] = molecular target: Heligmosomoides polygyrus TGF-β mimic (Hp-TGM), recombinant (Heligmosomoides polygyrus); experiment: as above
[3] = molecular target: H. polygyrus TGF-β mimic (Hp-TGM), recombinant, biotinylated (Heligmosomoides polygyrus); experiment: SPR; BIAcore 3000; biotinylated Avi-hTGF-β3 or Hp-TGM captured on streptavidin-coated CM5 chips at 400-500 RU; two-fold dilutions of analyte (hTβRII from 13 µM downwards; r-betaglycan) in HBS-EP at 100 µL/min, room temperature; global fit, simple 1:1 model
[4] = molecular target: biotinylated Avi-hTGF-β3 (human TGF-β3 bearing an N-terminal 15 amino acid Avitag followed by an EY linker) (human); experiment: as above

Protein sequences, listed by entry. Tags and fused reporters are not part of them. Residues count along the entry.
UniProt P37173, 23-166: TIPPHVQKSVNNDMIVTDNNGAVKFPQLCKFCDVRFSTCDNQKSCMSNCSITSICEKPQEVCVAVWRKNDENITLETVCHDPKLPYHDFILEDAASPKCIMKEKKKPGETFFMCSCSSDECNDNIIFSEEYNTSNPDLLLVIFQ

Row | Substance | Kd [1] [µM] | Kd [2] [µM] | koff [3] [s⁻¹] | kon [3] [M⁻¹ s⁻¹] | koff [4] [s⁻¹] | kon [4] [M⁻¹ s⁻¹]
1 | human TGF-β type II receptor extracellular domain (hTβRII) (from UniProt P37173 23-166) (domain or fragment) | 0.294 | 2.96 |  |  |  | 
2 | human TGF-β type II receptor extracellular domain (from UniProt P37173 23-166) |  |  | 0.0521 | 17600 | 0.0773 | 265000
